Test results as given in PubChem BioAssay AID720582 (The Scripps Research Institute Molecular Screening Center, 2013).
The list shows a part of the results, in another mix than the full data. Some tests of the compounds listed are not included; inactive here does not mean inactive elsewhere. The source made the active and inactive calls.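 How the source made its calls: active means inhibition above a per-campaign cutoff equal to the mean of compounds falling between control-based bounds plus 3 SD (cut at about 20% in these data); inactive means the rest.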

The chains behind the UniProt entries cited, without tags or fusion partners. Residues count along the entry.
UniProt O14672, 214-748 limits assumed: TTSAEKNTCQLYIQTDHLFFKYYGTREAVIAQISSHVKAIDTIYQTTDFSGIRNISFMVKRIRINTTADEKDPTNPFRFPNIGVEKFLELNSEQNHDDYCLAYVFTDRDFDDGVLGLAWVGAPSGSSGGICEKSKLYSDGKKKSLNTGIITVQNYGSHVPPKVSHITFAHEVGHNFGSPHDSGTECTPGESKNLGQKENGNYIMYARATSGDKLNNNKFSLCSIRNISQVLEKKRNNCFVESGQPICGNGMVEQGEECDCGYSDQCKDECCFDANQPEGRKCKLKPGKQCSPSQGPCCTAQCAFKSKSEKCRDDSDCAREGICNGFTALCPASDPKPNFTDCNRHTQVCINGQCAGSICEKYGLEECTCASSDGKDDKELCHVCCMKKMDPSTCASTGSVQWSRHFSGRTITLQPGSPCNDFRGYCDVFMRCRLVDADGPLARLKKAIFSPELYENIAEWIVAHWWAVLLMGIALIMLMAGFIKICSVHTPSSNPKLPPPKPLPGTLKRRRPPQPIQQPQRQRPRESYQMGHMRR

target: Disintegrin and metalloproteinase domain-containing protein 10 (Homo sapiens) (UniProt O14672); assay: blockers of ADAM10 peptide cleavage – biochemical, QFRET, HTS, primary screen (AID 720582); conditions: recombinant ADAM10, EDANS/DABCYL FRET peptide cleavage, 3 h; at 7 µM; active compounds read high;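 further: 0% = DMSO wells while the 100% control is not disclosed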

Row | SMILES | inhibition
1 | C=CCN1CCN(CCOC(=O)C(O)(c2ccccc2)c2ccccc2)CC1 | inactive: -1.51%
2 | O=C(NCC1(N2CCCCC2)CCCCC1)c1cc(F)c(F)cc1Cl | inactive: -0.28%
3 | Cc1cc(C(=O)NCC2(N3CCCCC3)CCCCC2)ccc1[N+](=O)[O-] | inactive: 2.69%
4 | CCN1CCCC(OC(=O)C2(O)c3ccccc3C=Cc3ccccc32)C1 (stereo unspecified) | inactive: 6.75%
5 | O=C(NCC1(N2CCCCC2)CCCCC1)c1cccc(Br)c1 | inactive: 5.56%
6 | COc1ccc(C(=O)NCC2(N(C)C)CCCCC2)cc1 | inactive: 4.63%
7 | Cc1ccccc1C(=O)NCC1(N2CCCCC2)CCCCC1 | inactive: 8.53%
8 | CN(C)C1CCCC1OC(=O)C(O)(c1ccccc1)c1ccccc1 (stereo unspecified) | inactive: -6.85%
9 | CN(C)c1ccc(C(=O)NCC2(N(C)C)CCCCC2)cc1 | inactive: -1.93%
10 | CC(C)N1C(=O)CC2(CCN(CCOC(=O)C(O)(c3ccccc3)c3ccccc3)CC2)C1=O | inactive: -0.68%
11 | CCN(CC)CC(C)C(C)OC(=O)C(O)(c1ccccc1)c1ccccc1 (stereo unspecified) | inactive: -1.12%
12 | COc1cc(SC)ccc1C(=O)NCC1(N(C)C)CCCCC1 | inactive: -0.07%
13 | Cc1ccc(C(=O)NCC2(N3CCCCC3)CCCCC2)cc1 | inactive: 0.88%
14 | O=C(NCC1(N2CCCCC2)CCCCC1)c1cc([N+](=O)[O-])ccc1Cl | inactive: 4.22%
15 | CN1[C@@H]2CC[C@H]1CC(OC(=O)C(O)(c1ccccc1)c1ccccc1)C2 (stereo partly specified) | inactive: -2.17%
16 | COc1ccc(Br)c(C(=O)NCC2(N3CCCCC3)CCCCC2)c1 | inactive: -5.84%
17 | C=C(C)C#CC(O)(C(=O)OC1CCN(C)CC1)c1ccccc1 (stereo unspecified) | inactive: -9.92%
18 | CN(C)c1cccc(C(=O)NCC2(N(C)C)CCCCC2)c1 | inactive: -18.7%
19 | CC(C)Oc1ccc(C(=O)NCC2(N(C)C)CCCCC2)cc1 | inactive: -3.1%
20 | O=C(OCCN1CCCC1)C(O)(c1ccccc1)c1ccccc1 | inactive: -13.4%
21 | O=C(OC1CN2CCC1CC2)C(CO)(c1ccccc1)c1ccccc1 (stereo unspecified) | inactive: -0.34%
22 | COc1cccc(C(=O)NCC2(N3CCCCC3)CCCCC2)c1 | inactive: -10.3%
23 | COc1ccc(Cl)cc1C(=O)NCC1(N(C)C)CCCCC1 | inactive: 7.99%
24 | O=C(NCC1(N2CCCCC2)CCCCC1)c1cccc(Cl)c1 | inactive: -12.7%
25 | CN(C)C1(CNC(=O)c2ccc(Br)cc2)CCCCC1 | inactive: 1.32%
26 | COc1cc(C(=O)NCC2(N(C)C)CCCCC2)c([N+](=O)[O-])cc1OC | inactive: -2.05%
